The record followed here is PMC3076939 (Biochemistry, 2011).

By UniProt entry, the sequences of proteins in these tests, tags left out. Where a name states a change or a piece, a line headed by the entry shows the natural chain unless it says otherwise.
UniProt P28843: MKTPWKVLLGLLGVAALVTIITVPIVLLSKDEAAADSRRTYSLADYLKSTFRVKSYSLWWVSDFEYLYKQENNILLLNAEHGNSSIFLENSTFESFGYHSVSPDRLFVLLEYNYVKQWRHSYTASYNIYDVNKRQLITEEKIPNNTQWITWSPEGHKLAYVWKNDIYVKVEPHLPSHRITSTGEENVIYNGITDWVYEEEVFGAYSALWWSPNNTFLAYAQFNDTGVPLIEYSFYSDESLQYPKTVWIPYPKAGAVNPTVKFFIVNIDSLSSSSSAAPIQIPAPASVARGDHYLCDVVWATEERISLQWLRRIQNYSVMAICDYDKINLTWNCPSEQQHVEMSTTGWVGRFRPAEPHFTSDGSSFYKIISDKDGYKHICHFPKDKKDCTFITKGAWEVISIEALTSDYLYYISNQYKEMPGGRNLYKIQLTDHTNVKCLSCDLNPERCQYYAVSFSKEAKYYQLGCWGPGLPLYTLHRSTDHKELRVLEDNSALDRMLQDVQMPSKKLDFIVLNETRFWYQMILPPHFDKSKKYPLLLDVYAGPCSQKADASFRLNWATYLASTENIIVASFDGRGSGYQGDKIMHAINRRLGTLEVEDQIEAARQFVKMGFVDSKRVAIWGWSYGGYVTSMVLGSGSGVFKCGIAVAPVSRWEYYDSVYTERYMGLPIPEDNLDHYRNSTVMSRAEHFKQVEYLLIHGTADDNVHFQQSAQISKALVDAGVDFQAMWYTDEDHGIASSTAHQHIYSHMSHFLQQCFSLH

In the test the target is DPP4 (Mus musculus, UniProt P28843). Format: biochemical.

As for `N#C[C@@H]1CCCN1C(=O)CNC12CC3CC(CC(O)(C3)C1)C2` [LAF-237, 1-[[(3-hydroxy-1-adamantyl)amino]acetyl]-2-cyano-(S)-pyrrolidine], the “reduction of the production of PHI(3–27)” value is given as above 100 fold.
